Values of other authors, collected in patent US7498300B2, “CRFR1 selective ligands” (The Salk Institute for Biological Studies, priority 2001, dated 2009).

Target: T1, CRFR1 (Rattus norvegicus, UniProt P35353)
T1 sequence (P35353 24-415): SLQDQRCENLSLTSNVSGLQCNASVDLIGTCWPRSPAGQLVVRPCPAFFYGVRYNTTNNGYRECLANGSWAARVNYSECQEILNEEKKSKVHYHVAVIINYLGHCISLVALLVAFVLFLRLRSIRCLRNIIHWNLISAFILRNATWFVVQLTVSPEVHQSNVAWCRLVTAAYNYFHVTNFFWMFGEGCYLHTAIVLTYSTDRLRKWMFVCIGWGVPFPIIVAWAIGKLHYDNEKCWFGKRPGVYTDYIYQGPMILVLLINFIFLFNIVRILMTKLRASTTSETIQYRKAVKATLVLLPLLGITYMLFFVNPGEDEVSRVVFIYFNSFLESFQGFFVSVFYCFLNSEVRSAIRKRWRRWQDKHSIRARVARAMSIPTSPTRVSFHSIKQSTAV
Details: Ruhmann et al., P.N.A.S. 95, 15264-15269 (1998); cited from earlier work

Substance: [D-Phe^11, His^12]-sauvagine(11-40)
- competitive antagonism for CRFR1 relative to the then best antagonist: about 30%
